# Results published in PubChem BioAssay AID568 (Sanford-Burnham Center for Chemical Genomics, 2006).
# By UniProt entry, the sequences of proteins in these tests, tags left out.
# UniProt P11142, whole entry: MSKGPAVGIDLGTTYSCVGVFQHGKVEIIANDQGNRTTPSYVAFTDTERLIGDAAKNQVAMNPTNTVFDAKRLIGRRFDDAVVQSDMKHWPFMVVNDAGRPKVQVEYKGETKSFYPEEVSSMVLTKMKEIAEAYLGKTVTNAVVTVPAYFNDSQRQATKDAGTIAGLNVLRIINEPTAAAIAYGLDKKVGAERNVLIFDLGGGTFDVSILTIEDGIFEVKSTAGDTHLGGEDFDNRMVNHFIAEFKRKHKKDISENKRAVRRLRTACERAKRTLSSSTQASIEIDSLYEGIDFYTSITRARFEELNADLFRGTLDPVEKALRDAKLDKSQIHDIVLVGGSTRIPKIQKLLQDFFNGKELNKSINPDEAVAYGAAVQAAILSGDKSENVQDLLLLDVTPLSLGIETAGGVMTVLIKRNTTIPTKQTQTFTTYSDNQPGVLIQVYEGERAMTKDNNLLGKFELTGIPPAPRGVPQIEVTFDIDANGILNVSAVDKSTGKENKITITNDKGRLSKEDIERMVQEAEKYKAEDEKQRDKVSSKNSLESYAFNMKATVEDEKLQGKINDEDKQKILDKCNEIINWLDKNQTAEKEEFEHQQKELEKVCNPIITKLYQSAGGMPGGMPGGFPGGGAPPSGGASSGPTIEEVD
# The entries are a selection whose mix differs from that of the whole data set. Entries with a potency or affinity are not part of this list. Some tests of the compounds listed are not included; inactive here does not mean inactive elsewhere. Calls of active or inactive are those of the source. The rule behind the calls is not given here.
# Target: Heat shock cognate 71 kDa protein (Homo sapiens) (UniProt P11142)
# Experiment: Hsc70 inhibitors, probe displacement, primary screen, biochemical, fluorescence polarization (AID 568)
# Details: mP, at 20 µM, stronger effect = higher value
row,Structure (SMILES),displacement
1,CN(C)c1cccc(C(=O)NCC2(N(C)C)CCCCC2)c1,inactive: 3.5%
2,O=C(OC1CN2CCC1CC2)C(CO)(c1ccccc1)c1ccccc1 (configuration not stated),inactive: 3.2%
